Source: patent EP0452101B1 (dated 1991)
Like-named read-outs stand apart in the source and are kept apart here.

Biological target: muscarinic receptors
Test: (-)3H-QNB binding to rat cerebral cortex homogenates with and without Cu++ treatment
[1] = read-out: KH, with Cu++ pretreatment (100 µM, 30 minutes)
[2] = read-out: KL, with Cu++ pretreatment (100 µM, 30 minutes)
[3] = read-out: KL, without pretreatment

SMILES	Ki [1] [nM]	Ki (read-out: KH, without pretreatment) [nM]	Ki [2] [nM]	Ki [3] [nM]	%H (% of high affinity state) (with Cu++ pretreatment (100 µM, 30 minutes)) [%]	%H (% of high affinity state) (with Cu++ pretreatment (100 µM, 30 minutes), listed as 1) [%]	%H (% of high affinity state) (without pretreatment) [%]	%H (% of high affinity state) (without pretreatment, listed as 1) [%]
C[N+](C)(C)CCOC(N)=O [Carbachol]	110 ± 10	893 ± 70	17500 ± 3200	27000 ± 700	44	44±3	25	25±1
CC1OC2(CS1)CN1CCC2CC1 (stereo not drawn) [AF102B, cis-2-methylspiro(1,3-oxathiolane-5',3)quinuclidine, reference compound]	20		3000 ± 10	3300				
